Earlier results in publication PMC5843756, “The drug interaction potential of daprodustat when coadministered with pioglitazone, rosuvastatin, or trimethoprim in healthy subjects” (Pharmacology Research & Perspectives, 2018).

Details: coadministration of trimethoprim; ref Hruska et al. 2005; cited from earlier work

For `CN(CCOc1ccc(CC2SC(=O)NC2=O)cc1)c1ccccn1` (stereo not shown) [rosiglitazone], the “fold increase in AUC with trimethoprim” value is given as 1.31 fold.
